Experimental data from patent publication US20200061062A1, “INHIBITORS OF HUMAN PHOSPHATIDYLINOSITOL 3-KINASE DELTA” (ICOS Corporation, priority 2000, published 2020).

Sequences of proteins named here, by UniProt entry; tags and fusion partners are left off. A change or cut given only in a name is not applied to a line headed by its entry.
UniProt P42338: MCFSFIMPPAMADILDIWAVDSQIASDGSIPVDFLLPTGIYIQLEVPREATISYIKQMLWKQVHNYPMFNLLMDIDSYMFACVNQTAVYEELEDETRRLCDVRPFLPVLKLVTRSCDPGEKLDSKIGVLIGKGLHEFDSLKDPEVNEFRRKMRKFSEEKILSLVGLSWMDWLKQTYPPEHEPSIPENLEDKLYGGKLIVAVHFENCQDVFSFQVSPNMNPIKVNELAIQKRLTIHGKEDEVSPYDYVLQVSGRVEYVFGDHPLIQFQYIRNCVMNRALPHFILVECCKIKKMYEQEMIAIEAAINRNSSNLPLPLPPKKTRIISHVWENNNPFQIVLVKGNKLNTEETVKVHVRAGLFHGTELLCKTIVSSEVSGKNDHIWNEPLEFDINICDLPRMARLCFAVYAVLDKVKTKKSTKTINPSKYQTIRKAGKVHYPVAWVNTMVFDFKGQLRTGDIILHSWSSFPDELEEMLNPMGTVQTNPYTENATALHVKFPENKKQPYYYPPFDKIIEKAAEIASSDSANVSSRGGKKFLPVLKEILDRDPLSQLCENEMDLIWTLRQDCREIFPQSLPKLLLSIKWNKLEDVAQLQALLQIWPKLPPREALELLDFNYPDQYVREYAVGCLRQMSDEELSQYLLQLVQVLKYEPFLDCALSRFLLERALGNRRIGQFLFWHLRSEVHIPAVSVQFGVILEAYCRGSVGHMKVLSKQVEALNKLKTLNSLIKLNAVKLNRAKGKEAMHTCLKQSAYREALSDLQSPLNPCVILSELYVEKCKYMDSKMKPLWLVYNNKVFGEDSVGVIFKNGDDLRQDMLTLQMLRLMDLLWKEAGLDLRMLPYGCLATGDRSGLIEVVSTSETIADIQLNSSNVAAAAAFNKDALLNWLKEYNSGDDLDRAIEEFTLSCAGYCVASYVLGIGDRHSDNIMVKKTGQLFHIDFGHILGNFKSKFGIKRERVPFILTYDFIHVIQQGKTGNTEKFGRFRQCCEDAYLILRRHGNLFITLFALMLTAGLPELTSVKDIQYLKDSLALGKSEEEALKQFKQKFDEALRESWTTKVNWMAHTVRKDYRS
UniProt P48736: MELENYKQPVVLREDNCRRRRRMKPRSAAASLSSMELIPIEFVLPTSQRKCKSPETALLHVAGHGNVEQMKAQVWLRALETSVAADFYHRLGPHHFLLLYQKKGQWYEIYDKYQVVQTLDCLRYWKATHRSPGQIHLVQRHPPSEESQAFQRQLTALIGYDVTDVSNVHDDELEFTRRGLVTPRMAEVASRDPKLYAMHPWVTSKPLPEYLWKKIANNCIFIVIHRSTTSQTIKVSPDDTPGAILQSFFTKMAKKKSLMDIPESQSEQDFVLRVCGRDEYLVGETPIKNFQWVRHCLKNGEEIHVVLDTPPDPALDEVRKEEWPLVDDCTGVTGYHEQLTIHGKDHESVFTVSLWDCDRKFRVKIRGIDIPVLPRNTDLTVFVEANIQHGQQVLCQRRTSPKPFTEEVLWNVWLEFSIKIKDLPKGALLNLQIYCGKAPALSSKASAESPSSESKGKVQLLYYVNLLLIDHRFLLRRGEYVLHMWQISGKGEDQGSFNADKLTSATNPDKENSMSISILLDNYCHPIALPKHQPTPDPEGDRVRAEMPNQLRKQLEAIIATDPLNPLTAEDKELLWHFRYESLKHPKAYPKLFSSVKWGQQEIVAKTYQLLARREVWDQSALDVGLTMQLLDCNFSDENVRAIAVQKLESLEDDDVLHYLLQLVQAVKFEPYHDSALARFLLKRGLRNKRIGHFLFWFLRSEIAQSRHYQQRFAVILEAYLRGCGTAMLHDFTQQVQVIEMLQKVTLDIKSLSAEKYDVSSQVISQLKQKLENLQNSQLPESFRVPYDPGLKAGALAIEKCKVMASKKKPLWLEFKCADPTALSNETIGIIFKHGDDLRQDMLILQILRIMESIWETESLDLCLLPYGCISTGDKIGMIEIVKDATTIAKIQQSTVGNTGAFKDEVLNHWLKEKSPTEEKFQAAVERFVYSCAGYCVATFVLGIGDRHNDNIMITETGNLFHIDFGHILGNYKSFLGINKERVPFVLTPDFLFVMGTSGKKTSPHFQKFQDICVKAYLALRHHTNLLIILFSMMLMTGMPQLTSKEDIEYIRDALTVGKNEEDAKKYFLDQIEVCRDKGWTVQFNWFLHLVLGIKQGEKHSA

Legend:
PI3Kβ [1] = biological target: T1, PI3Kβ (Homo sapiens, UniProt P42338); test: Biochemical assay using 200 μM ATP, Beta
PI3Kγ = PI3Kγ (Homo sapiens, UniProt P48736); test: Biochemical assay using 200 μM ATP, Gamma
PI3Kβ [2] = biological target: T1, PI3Kβ; test: Biochemical assay of PI3K potency and selectivity using 20 μM ATP, Beta; parameters: His tag (pFastbac HTa vector) (N); FLAG (N); made in house; host or cells: Sf21 insect cells (baculovirus)

## O=c1cc(N2CCOCC2)oc2c(-c3ccccc3)cccc12 [LY294002, reference compound]
PI3Kβ [1]
  IC50: 3700 ± 2000 nM
PI3Kγ
  IC50: 29000 ± 13000 nM
PI3Kβ [2]; 20 μM ATP, read-out: Beta IC50
  IC50: 400 nM
PI3Kβ [2]; Example 2 assay conditions, limit of 100 μM compound, read-out: IC50, β isoform of PI3K (FIG. 1)
  IC50: 300 to 1000 nM
